Results taken from ChEMBL document CHEMBL3352185, “Design, synthesis, and antibacterial properties of dual-ligand inhibitors of acetyl-CoA carboxylase” (2014).

Experiments:
[1] = test system: Staphylococcus aureus; conditions: ATCC 29213
[2] = test system: Pseudomonas aeruginosa; conditions: PAO1
[3] = test system: Staphylococcus aureus; conditions: ATCC 29213; remark: listed apart in the source

Measured: MIC

GENTAMICIN
0.5 µg/mL: [1] | [2] | [3]
